Test [1] concerns the target T1, CB1 receptor (Mus musculus, UniProt P47746). The following applies: previously shown; cited from earlier work.
In test [2] the target is T1, CB1 receptor. As to the kind of experiment: Food intake in 24 h-food deprived mice (fasting/refeeding). Format: in vivo, C57B1/6 mice. Details: tissue Charles River Laboratories (France) (animals); host or cells: living mice, whole animal. The following applies: SR141716A 0.05 mg/kg ip 30 min before pregnenolone 6 mg/kg.

The chains behind the UniProt entries cited, without tags or fusion partners.
UniProt P47746, whole entry: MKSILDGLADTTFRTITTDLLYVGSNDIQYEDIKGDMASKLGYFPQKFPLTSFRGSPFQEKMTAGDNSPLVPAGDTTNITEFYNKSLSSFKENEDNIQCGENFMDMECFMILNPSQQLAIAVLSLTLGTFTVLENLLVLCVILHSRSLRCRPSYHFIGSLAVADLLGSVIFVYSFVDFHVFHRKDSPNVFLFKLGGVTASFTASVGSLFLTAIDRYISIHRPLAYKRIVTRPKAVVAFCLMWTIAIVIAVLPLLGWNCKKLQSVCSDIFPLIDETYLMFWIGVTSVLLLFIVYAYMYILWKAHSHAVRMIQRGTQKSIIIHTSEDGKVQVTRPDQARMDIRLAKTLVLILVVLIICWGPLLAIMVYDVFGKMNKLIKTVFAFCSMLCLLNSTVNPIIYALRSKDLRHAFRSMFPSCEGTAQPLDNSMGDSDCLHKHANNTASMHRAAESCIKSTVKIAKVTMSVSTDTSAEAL

For `Cc1c(C(=O)NN2CCCCC2)nn(-c2ccc(Cl)cc2Cl)c1-c1ccc(Cl)cc1` [rimonabant, reference compound], the “effect on food intake over 24 hours” value on CB1 receptor [1] is reported as “profoundly reduce food-intake over 24 hours”. The “effect on reduction in food intake induced by pregnenolone” value at CB1 receptor [2] is listed as “suppressed the reduction in food intake induced by pregnenolone”.

Values taken from patent US10150793B2, “Antagonists of CB1 receptor” (INSERM (Institut National de la Santé et de la Recherche …, priority 2011, dated 2018).
